PMC3252466 (Chirality, 2011)

The chains behind the UniProt entries cited, without tags or fusion partners.
UniProt P33261, whole entry: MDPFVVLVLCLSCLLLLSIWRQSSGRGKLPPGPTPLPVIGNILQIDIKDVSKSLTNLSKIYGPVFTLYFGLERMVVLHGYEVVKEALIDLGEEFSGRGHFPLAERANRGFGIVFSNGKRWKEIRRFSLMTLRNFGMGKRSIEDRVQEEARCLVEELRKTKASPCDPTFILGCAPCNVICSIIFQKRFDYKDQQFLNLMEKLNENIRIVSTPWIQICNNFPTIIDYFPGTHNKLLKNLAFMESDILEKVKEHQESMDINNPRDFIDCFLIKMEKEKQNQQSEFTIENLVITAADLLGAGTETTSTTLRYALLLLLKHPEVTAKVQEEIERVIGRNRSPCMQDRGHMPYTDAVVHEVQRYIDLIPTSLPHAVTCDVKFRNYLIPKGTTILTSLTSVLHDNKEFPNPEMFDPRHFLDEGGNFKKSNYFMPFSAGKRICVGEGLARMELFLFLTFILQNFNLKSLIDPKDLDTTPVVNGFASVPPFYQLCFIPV
UniProt P11712, whole entry: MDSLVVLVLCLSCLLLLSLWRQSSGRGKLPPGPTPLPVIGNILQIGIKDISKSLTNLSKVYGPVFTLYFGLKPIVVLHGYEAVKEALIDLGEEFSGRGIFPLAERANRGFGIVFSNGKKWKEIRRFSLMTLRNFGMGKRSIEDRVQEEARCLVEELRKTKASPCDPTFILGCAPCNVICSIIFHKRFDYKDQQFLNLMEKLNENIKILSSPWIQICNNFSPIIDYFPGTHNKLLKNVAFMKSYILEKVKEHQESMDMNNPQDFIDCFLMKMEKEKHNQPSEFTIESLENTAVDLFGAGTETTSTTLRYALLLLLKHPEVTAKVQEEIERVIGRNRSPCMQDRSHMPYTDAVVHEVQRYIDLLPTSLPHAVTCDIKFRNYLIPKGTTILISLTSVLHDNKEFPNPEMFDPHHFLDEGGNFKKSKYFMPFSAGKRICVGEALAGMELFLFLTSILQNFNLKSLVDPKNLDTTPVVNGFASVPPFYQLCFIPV

Tests used:
human CYP2C19 = human CYP2C19 (Homo sapiens, UniProt P33261); details: read-out: IC50 CYP2C19, recombinant human CYP2C19 7.5 nM, 25 μM CEC, 30 min, 37°C, mean (95% confidence interval)
human CYP2C9 = human CYP2C9 (Homo sapiens, UniProt P11712); details: read-out: IC50 CYP2C9, recombinant human CYP2C9 15 nM, 150 μM MFC, 45 min, 37°C, mean (95% confidence interval)

naringenin [rac-naringenin] was tested, and the IC50 (human CYP2C19) was 2600 nM, the IC50 (human CYP2C19; listed as Naringenin) was < 5000 nM and the IC50 (human CYP2C9) was 2600 nM. The IC50 (human CYP2C9; listed as Naringenin) was < 5000 nM.

Like-named read-outs stand apart in the source and are kept apart here.
